Measurements: patent US20030171306A1, “Cancer treatment method” (priority 2002, published 2003)

The compounds below were run on multiple stage neutrophil progenitors (assay: CD15 neutrophil antigen cell-based ELISA (CELISA)). Details: PDE4 inhibitor 1 μM in combination with forskolin.

SMILES | protection of neutrophil progenitors from the cytotoxic effects of paclitaxel
COc1ccc([C@]2(C#N)CC[C@@H](C(=O)O)CC2)cc1OC1CCCC1 [Ariflo, cis-4-cyano-4-[3-(cyclopentyloxy)-4-methoxyphenyl]cyclohexane-1-carboxylic acid] | protected
COC(=O)c1cccc(-n2c(=O)n(Cc3ccccc3)c(=O)c3cccnc32)c1 [CP-77059] | protected
CCCCn1c(=O)c2c(ncn2CC(C)=O)n(CCCC)c1=O [Denbufylline, 7-acetonyl,1,3dibutylxanthine] | protected
COC(=O)N1C[C@@H](c2ccc(OC)c(OC3CCCC3)c2)[C@](C)(C(C)=O)C1 [GI193600X] | protected
CCn1c(=O)c2ccccc2n(-c2cccc([N+](=O)[O-])c2)c1=O [Nitraquazone] | protected
COc1ccc(C(=O)Nc2c(Cl)cncc2Cl)cc1OC1CCCC1 [Piclamilast, N-(3,5-dichloropyrid-4-yl)-3-cyclopentyloxy-4-methoxybenzamide] | protected
O=c1c2cccnc2n(-c2cccc([N+](=O)[O-])c2)c(=O)n1Cc1ccncc1 [RS-25344] | protected

Same assay, conditions: ariflo 1 μM plus forskolin

SMILES | protection of neutrophil progenitors from the cytotoxic effects of topotecan
COc1ccc([C@]2(C#N)CC[C@@H](C(=O)O)CC2)cc1OC1CCCC1 [Ariflo, cis-4-cyano-4-[3-(cyclopentyloxy)-4-methoxyphenyl]cyclohexane-1-carboxylic acid] | protected
